Measured values: patent publication US20230312639A1, “GPER PROTEOLYTIC TARGETING CHIMERAS” (University of Iowa Research Foundation, priority 2020, published 2023)

Amino acid sequences for entries named in this document (tags omitted).
UniProt Q99527, whole entry: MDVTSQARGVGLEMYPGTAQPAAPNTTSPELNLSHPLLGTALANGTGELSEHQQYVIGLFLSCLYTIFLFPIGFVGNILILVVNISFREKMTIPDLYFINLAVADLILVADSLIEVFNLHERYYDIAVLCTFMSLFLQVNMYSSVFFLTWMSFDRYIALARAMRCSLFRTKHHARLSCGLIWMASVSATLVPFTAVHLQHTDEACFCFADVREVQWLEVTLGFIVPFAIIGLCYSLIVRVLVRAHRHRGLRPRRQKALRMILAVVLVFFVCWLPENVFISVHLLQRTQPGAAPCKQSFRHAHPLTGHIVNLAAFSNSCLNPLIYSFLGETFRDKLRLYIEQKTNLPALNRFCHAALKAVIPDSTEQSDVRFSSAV

Biological target: GPER (Homo sapiens, UniProt Q99527)
Experiment: Competitive binding assay in intact SKBR3 cells with E2-FITC as fluoro-tracer (flow cytometry)
Set-up: endogenous in cells; host or cells: SKBR3 human breast carcinoma cells (ATCC)

Cc1ncsc1-c1ccc(CNC(=O)C2CC(O)CN2C(=O)C(NC(=O)COCCOCCOCCOCC(=O)OC2CCC3C4CCc5cc(O)ccc5C4CCC23C)C(C)(C)C)cc1 (stereo not drawn) [UI-EP001]
RBA%, GPER (IC50 of 17β-E2 divided by IC50 of test compound): 331.1% | IC50 (intact SKBR3 cells, 100 nM E2-FITC, mean ± SD of triplicates): 30.2 ± 0.9 nM | Kd (intact SKBR3 cells, E2-FITC, read-out: binding dissociation constant (Kd), GPER): 30.2 nM
